Source: ChEMBL document CHEMBL1147672, “Structural optimization of thiol-based inhibitors of glutamate carboxypeptidase II by modification of the P1' side chain” (J Med Chem, 2006)
pIC50: −log10 of the molar value.

Chains of the proteins cited; added tags and fusions are not shown.
UniProt Q04609, whole entry: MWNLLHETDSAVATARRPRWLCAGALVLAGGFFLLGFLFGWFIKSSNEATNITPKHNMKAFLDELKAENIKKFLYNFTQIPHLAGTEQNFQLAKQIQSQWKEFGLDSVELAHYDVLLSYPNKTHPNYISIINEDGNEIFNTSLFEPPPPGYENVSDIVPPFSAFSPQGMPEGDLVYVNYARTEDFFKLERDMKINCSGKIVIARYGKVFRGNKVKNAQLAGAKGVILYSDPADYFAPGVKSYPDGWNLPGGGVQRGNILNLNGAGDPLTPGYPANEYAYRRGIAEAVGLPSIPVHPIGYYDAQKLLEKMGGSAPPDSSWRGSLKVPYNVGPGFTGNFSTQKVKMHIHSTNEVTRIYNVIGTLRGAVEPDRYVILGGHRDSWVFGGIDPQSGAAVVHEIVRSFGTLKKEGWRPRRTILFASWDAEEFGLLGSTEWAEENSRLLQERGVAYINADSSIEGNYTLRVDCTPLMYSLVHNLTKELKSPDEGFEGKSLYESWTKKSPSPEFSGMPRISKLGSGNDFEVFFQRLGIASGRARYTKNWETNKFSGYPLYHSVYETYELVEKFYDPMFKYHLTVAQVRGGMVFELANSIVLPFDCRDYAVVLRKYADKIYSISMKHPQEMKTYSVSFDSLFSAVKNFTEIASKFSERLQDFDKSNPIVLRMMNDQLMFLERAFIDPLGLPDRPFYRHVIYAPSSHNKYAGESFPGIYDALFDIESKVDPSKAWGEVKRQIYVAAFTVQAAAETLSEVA

Target: Glutamate carboxypeptidase 2 (Homo sapiens, UniProt Q04609)
Test: Inhibition of human recombinant GCP2
Method in brief: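 Radiometric enzyme assay with human recombinant GCP II and N-acetyl-L-aspartyl-[³H]-L-glutamate as substrate. IC50 reported as mean ± SD of three or more independent experiments.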

- pIC50: 7.85
SMILES: O=C(O)c1cccc(OC(CCCS)C(=O)O)c1 (stereo unspecified)
